We go through one compound from US7186530B1, “Protein associated with cell stress response” (Chiron Corporation, priority 2000, dated 2007).

The subject of the experiment is p46 hyperphosphorylation. Kind of experiment: p46 (Nogo B) hyperphosphorylation after UVC irradiation in presence of inhibitors, Western blot with SC-54. The format is cell-based, human. How it is done: FIG. 5. […] Then cells were irradiated with 20 J/m^2 of UVC and lysed 30 minutes later. Whole cell lysates were separated on SDS-PAGE. SC-54 was used for Western Blotting.
Cell culture and treatment. Normal human fibroblast IMR90 was purchased from American Type Culture Collection (Manassas, Va.). Cells were routinely cultured in Dulbecco's Modified Eagle's Medium (DMEM) containing 10% fetal bovine serum, 2 mM L-glutamine, 4.5 g/liter glucose, 100 units penicillin and 100 μg streptomycin at 37° C. under an atmosphere of 5% CO2. For UV irradiation, cells were washed twice with phosphate-buffered saline (PBS) and then irradiated with appropriate doses of UVC (254 nm). Fresh complete medium was added back and cells were lysed at appropriate times. For treatment with BPDE, cells were washed with PBS twice and fresh DMEM was added. BPDE was dissolved in anhydrous dimethyl sulfoxide (DMSO) and appropriate amount of BPDE solution was added to DMEM. Cells were lysed 30 minutes later.
Western Blotting. Lysates prepared from equal number of cells were mixed with equal volume of 2× sample buffer (50 mM Tris.HCl, pH 6.9, 9% glycerol, 2.3% SDS, 0.1% bromophenol blue and 10% mecaptoethanol) and the proteins were separated on a SDS/polyacrylamide gel. The proteins were then electroblotted onto an Immobilon-P membrane (Millipore, Bedford, Mass.). […]
In general terms: In western blotting, separated proteins are transferred to a membrane and probed.

`O=[N+]([O-])c1ccc(-c2nc(-c3ccncc3)c(-c3ccc(F)cc3)[nH]2)cc1` [PD169316]: the “hyperphosphorylation of Nogo” value is “abolished” and the p46 hyperphosphorylation entry is “almost completely abolished”.
